The values that follow come from ChEMBL document CHEMBL3352477, “Unfolded Protein Response in Cancer: IRE1α Inhibition by Selective Kinase Ligands Does Not Impair Tumor Cell Viability” (ACS Med Chem Lett, 2015).

Structures are written as SMILES.

The assay in a line: Selectivity ratio of IC50 for human wild type JNK3 to IC50 for human IRE1alpha.
`Cc1cc(Nc2nc3ccccc3o2)c2ccccc2c1Oc1ncccc1-c1ccnc(N[C@H]2CC[C@H](N)CC2)n1`: the Ratio IC50 stood at 0.5.

`Cc1cc(NS(=O)(=O)c2ccccc2C#N)c2ccccc2c1Oc1ncccc1-c1ccnc(N[C@H]2CC[C@H](N)CC2)n1`: the Ratio IC50 amounted to 33.

In the case of `Cc1cc(Nc2nc3ccccc3[nH]2)c2ccccc2c1Oc1ncccc1-c1ccnc(N[C@H]2CCCNC2)n1`, the Ratio IC50 is 3.9. Consider `N[C@H]1CC[C@@H](Nc2nccc(-c3cccnc3Oc3ccc(Nc4nc5ccccc5[nH]4)c4ccccc34)n2)CC1`, for which the Ratio IC50 came out at 0.17.

For the compound `Cc1cc(Nc2nc3ccccc3[nH]2)c2ccccc2c1Oc1ncccc1-c1ccnc(NCCN(C)C)n1`, the Ratio IC50 is 51. As for `Cc1ccc2c(NS(=O)(=O)c3ccccc3Cl)cccc2c1Oc1ncccc1-c1ccnc(N[C@H]2CCCNC2)n1`, the Ratio IC50 is 192. For the compound `N[C@H]1CC[C@H](Nc2nccc(-c3cccnc3Oc3ccc(Nc4nc5ccccc5[nH]4)c4ccccc34)n2)CC1`, the Ratio IC50 stood at 0.17. Turning to `CN(C)CCNc1nccc(-c2cccnc2Oc2ccc(Nc3nc4ccccc4[nH]3)c3ccccc23)n1`, the Ratio IC50 was found to be 4.9.
